Data reported in patent publication US7029870B1 (priority 1997, dated 2006).

By UniProt entry, the sequences of proteins in these tests, tags left out. Residues count along the entry.
UniProt P78334, 23-506 S102A: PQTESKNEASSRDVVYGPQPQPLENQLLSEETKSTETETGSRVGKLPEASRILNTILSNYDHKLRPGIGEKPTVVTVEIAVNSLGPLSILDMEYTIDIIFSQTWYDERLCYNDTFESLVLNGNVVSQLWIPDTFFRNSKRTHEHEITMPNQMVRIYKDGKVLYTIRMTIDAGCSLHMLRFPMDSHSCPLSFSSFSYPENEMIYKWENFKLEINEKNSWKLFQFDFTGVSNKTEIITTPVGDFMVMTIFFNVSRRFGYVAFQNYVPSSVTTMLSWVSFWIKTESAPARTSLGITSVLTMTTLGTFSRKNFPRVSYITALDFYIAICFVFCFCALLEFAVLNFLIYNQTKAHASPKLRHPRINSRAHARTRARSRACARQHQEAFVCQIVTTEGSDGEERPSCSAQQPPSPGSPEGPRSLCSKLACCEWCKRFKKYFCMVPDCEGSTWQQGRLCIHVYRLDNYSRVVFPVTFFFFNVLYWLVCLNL

Target: GABAA receptor ε-subunit (Homo sapiens, UniProt P78334, S102A)
Assay: Radioligand binding to HEK-293 cells transfected with only the ε-subunit cDNA

In the case of t-butyl bicyclophosphorothionate, the “Expression of radioligand binding sites” value is reported as “did not express binding sites”.
